AlphaSeq binding of Ab-95 light chain variants to a spike HR2 peptide

Values reported by Engelhart et al. 2022, doi:10.1038/s41597-022-01779-4 (FLAb copy).

Binding partner: SARS-CoV-2 spike HR2 peptide, sequence PDVDLGDISGINAS.

Parent scFv Ab-95: VH joined to VL by three GGGGS repeats. Changes lie in the light chain CDRs alone.
VH: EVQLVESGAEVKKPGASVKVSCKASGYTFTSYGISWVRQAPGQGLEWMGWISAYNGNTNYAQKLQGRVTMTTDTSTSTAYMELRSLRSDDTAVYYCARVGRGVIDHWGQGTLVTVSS
VL: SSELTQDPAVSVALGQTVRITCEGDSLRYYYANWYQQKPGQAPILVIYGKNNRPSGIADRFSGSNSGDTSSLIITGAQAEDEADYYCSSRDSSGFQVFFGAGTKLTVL

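In library AAYL52, one, two or three CDR residues were substituted; doubles and triples were drawn at random. Affinity was read by AlphaSeq, a pooled yeast mating assay with surface-displayed partners. The frequency of each diploid, read from paired DNA barcodes, reflects how well the two displayed proteins bind. The ratio of observed to expected reads was calibrated, replicate by replicate, on BCL2-family standards whose Kd was known from biolayer interferometry. There are three technical replicates.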

Positions count from residue 1 of the parent VL; S88W puts W in place of S. Affinities are written as log10 Kd with Kd in nM; a lower number is a better binder. The mean shown is taken over the replicates in which the pair was detected. "nd" marks a missing value. The strain was present, yet no cells mated with the target were sequenced in any replicate, which points to weak or no binding. Three control strains display no target. For library AAYL52, 28% of the pairings with them gave a signal, with a median of 3.91 and one signal in twenty below 2.90, so weak values seen in few replicates may be background. For each scFv, signals with the empty controls are counted beside the result.

changes | log10 Kd (nM), mean | replicates with signal | empty controls
S88W+D91P+Q96L | 4.04 | 1/3 | 2/9
G49S+S88C+Q96P | 1.42 | 3/3 | 4/9
S26Q+S93K | nd | 0/3 | 0/9
K50C+N51F+G94E | 4.32 | 2/3 | 2/9
S92D+G94C | 3.83 | 3/3 | 3/9
S26D+S89W+S92G | 5.21 | 1/3 | 2/9
R28P+K50I+F95T | 2.30 | 3/3 | 1/9
A32G+R53S+V97Y | 4.02 | 1/3 | 2/9
K50A+V97G+F98M | 2.56 | 3/3 | 0/9
N51S+N52W+V97R | 4.41 | 3/3 | 0/9
A32F+G49V+S55V | 4.18 | 2/3 | 1/9
Y30K+A32F+S89C | 3.00 | 3/3 | 2/9
S55V+S92Q+Q96V | 2.76 | 3/3 | 4/9
Y29Q+S92T+Q96M | 3.02 | 3/3 | 2/9
E23Q+G94Q+Q96V | 2.72 | 3/3 | 5/9
Y31P+K50L | 0.52 | 3/3 | 0/9
G49N+S55E+S89M | 4.14 | 3/3 | 4/9
A32K+S55Q+Q96R | 3.59 | 2/3 | 2/9
N51M+S89G+D91Q | 3.44 | 3/3 | 3/9
Y30E+R53Y+S55H | 2.80 | 3/3 | 4/9
G24S+V97Y | 3.42 | 2/3 | 0/9
E23H+V97D | 2.24 | 3/3 | 2/9
R53P+R90L+D91W | 3.80 | 2/3 | 4/9
G24D+D25W+F95Q | nd | 0/3 | 1/9
F95A+V97D | 1.98 | 3/3 | 4/9
N52E+S88F+S92H | 3.33 | 3/3 | 1/9
Y31A+A32L+V97P | 3.13 | 2/3 | 1/9
L27G+N33V+K50S | 3.82 | 1/3 | 1/9
R53L+S55V+V97N | 3.87 | 1/3 | 1/9
S26N+R28C+P54Q | 4.42 | 1/3 | 0/9
E23H+Y29I+S93I | 4.06 | 1/3 | 0/9
R28H+Y30Q+F98D | 1.49 | 3/3 | 3/9
D25Y+K50S+S89I | 2.88 | 3/3 | 3/9
R28T+S89A+F98W | 2.05 | 3/3 | 6/9
E23A+N51V+G94F | 3.49 | 2/3 | 5/9
Y30F+S88F+R90C | 2.61 | 3/3 | 2/9
D25R+R28I+S92Q | 3.31 | 3/3 | 3/9
R90C+G94D | 2.04 | 3/3 | 2/9
A32C+N51R+N52Y | 4.27 | 2/3 | 2/9
L27M+Y30L+F95W | 3.30 | 3/3 | 5/9
S26C+L27Y+A32C | nd | 0/3 | 0/9
D25A+Y31H+S89D | 2.91 | 3/3 | 7/9
A32M+P54S+G94L | nd | 0/3 | 1/9
Y31F+P54A+Q96L | 2.57 | 3/3 | 6/9
D25G+Y30C+S92D | 3.30 | 3/3 | 5/9
K50I+S89E+S92E | 3.74 | 2/3 | 4/9
N52L+S55Q | 2.13 | 3/3 | 3/9
G49T+N52E | nd | 0/3 | 0/9
K50P+S92I+V97C | 3.29 | 3/3 | 4/9
Y30N+D91I | 4.02 | 3/3 | 4/9
D25C+R53W+S88H | 3.63 | 1/3 | 1/9
D25A+R28C+S55E | 2.71 | 3/3 | 0/9
Y31V+S89F+S92P | 3.28 | 1/3 | 1/9
N51I+S55A+Q96H | 3.88 | 3/3 | 4/9
R28D+N51C+P54A | 3.25 | 1/3 | 2/9
Y31L+S93A+F95T | 2.39 | 3/3 | 2/9
G49N+S55I+S93D | 3.85 | 3/3 | 3/9
Y29E+N51F+G94T | 4.40 | 2/3 | 2/9
R28P+N52H+S89K | 4.66 | 1/3 | 1/9
Y29S+F95Y | 1.37 | 3/3 | 4/9
E23T+P54K+G94L | nd | 0/3 | 1/9
Y30E+Y31R+S92W | 1.57 | 3/3 | 2/9
Y30A+P54M+Q96G | 1.55 | 3/3 | 2/9
K50P+S88A+V97E | 3.90 | 2/3 | 2/9
E23K+N33M | 4.35 | 2/3 | 2/9
G49K+S92N+F95R | 4.65 | 2/3 | 3/9
G24I+S88G+D91P | nd | 0/3 | 1/9
E23G+N51T+Q96C | 3.44 | 3/3 | 2/9
K50C+N51W+F95R | 3.91 | 2/3 | 3/9
N33P+K50C+S92A | 3.47 | 2/3 | 4/9
S88T+S89T+S92R | 3.10 | 2/3 | 1/9
N52K+S88Q+G94L | 3.56 | 1/3 | 2/9
Y31S+S89C+G94P | 3.50 | 1/3 | 2/9
S93T+V97A | 2.58 | 3/3 | 1/9
G24Q+N52E+V97A | nd | 0/3 | 0/9
R28C+Y29N+R90N | 3.34 | 2/3 | 1/9
S26A+L27F+A32T | 2.49 | 3/3 | 6/9
S88H+R90M+G94W | 1.90 | 3/3 | 4/9
D25P+Y29C+F95T | 3.80 | 1/3 | 4/9

The last 13 entries again:

changes,"log10 Kd (nM), mean",replicates with signal,empty controls
G24I+S88G+D91P,nd,0/3,1/9
E23G+N51T+Q96C,3.44,3/3,2/9
K50C+N51W+F95R,3.91,2/3,3/9
N33P+K50C+S92A,3.47,2/3,4/9
S88T+S89T+S92R,3.10,2/3,1/9
N52K+S88Q+G94L,3.56,1/3,2/9
Y31S+S89C+G94P,3.50,1/3,2/9
S93T+V97A,2.58,3/3,1/9
G24Q+N52E+V97A,nd,0/3,0/9
R28C+Y29N+R90N,3.34,2/3,1/9
S26A+L27F+A32T,2.49,3/3,6/9
S88H+R90M+G94W,1.90,3/3,4/9
D25P+Y29C+F95T,3.80,1/3,4/9

In this assay the parent's reference entry averaged 2.31; its copy inside this library read 2.25.